This is a selection; strong and weak results do not stand in their true shares. Calls of active or inactive are those of the source. Cut-off read from the data, not from the text of the source: active = activity change below about -50%; inconclusive = mostly about -30% to -49%; inactive = weaker than that.

Amino acid sequences for entries named in this document (tags omitted).
UniProt Q9BTU6, whole entry: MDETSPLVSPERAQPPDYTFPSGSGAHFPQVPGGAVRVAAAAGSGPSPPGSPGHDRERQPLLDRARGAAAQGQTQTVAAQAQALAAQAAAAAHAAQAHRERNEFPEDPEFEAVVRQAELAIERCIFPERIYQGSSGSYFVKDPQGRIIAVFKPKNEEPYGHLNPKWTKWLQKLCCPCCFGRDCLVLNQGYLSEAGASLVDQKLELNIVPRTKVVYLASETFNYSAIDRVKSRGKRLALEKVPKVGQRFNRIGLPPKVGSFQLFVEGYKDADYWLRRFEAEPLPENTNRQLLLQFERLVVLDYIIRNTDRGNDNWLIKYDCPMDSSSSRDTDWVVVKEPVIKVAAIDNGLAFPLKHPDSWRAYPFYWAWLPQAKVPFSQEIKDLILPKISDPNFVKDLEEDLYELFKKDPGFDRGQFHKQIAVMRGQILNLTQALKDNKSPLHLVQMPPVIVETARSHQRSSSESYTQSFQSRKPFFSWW

The assay deals with Phosphatidylinositol 4-kinase type 2-alpha (Homo sapiens) (UniProt Q9BTU6). Nature of the assay: qHTS for small molecular inhibitors of PI4K2A.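 For activity change, negative = inhibition: -100% = wells without enzyme as full effect.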 The settings on record: purified PI4K2A, ADP-Glo luminescence, 1 h; at 76.9 µM, active compounds read low. The source says:
The phosphatidylinositol 4-phosphate (PI4P) is emerging as a key regulator of lipid transfer in ER-membrane contact sites. The four different phosphatidylinositol 4-kinase (PI4K) enzymes generate PI4P in different membrane compartments supporting distinct cellular processes many of which are crucial for the maintenance of cellular integrity but also hijacked by intracellular pathogens. The goal of this screening project is to search for small molecular inhibitors of PI4K2A based on a high throughput screening strategy.The ADP-Glo assay was used as a starting point to develop a miniaturized version for HTS applications. To implement the HTS screen, the PI4K ADP-Glotrade mark Kinase assay (Promega, V9102) was miniaturized for the 1536-well format used at NCGC.
For the robotic screening, the ADP-Glo assay using the ADP-Glotrade mark Kinase Assay kit from Promega was miniaturized and optimized on 1536-well white solid bottom plates (Greiner Bio-one). The substrate, 1.2 mM PI, prepared in the assay buffer (40mM Tris pH7.5, 20mM MgCl2, 1mM EGTA, 0.4% Triton X-100, 0.5mM DTT, 0.5mg/ml BSA) and PI4K2A enzyme, diluted also in the assay buffer to 4ug/mL, were dispensed onto the plates in equal volumes (1microl/well), pinned with 23 nL/well tested compounds or control followed by dispensation of 1microl/well 300microM ATP. The plates were incubated for one hour. Then, 2 µL/well of ADP-Glo reagent was added and incubated for 40 minutes. Next, 4microL/well of Kinase Detection Buffer was added to the plates and incubated for additional 40 minutes. All incubation steps were performed at ambient temperature. The resulting luminescence signal was measured on Viewlux plate reader (PerkinElmer). Adenosine, a partial non-specific inhibitor, was used as a positive control at 100microM final concentration to assess the assay's quality and plate-to-plate reproducibility. We also used "no enzyme" control to gauge the assay's maximal potential inhibition (IC100).
For orientation: In qHTS, concentration-response curves come from the screen itself.
Regarding `CP(=S)(Nn1cnnc1)Oc1ccccc1` (stereo unspecified), the activity change, negative = inhibition is inactive: -1.21%.
Next, `COc1ccccc1OP(C)(=O)Nc1ccccc1` (stereo unspecified): inactive: 3.2%.
Next, `CP(=O)(Nc1ccccc1Br)Oc1ccccc1` (stereo unspecified): inactive: -1.17%; `CP(=O)(Oc1ccccc1)OC(c1ccccc1)C(F)(F)F` (stereo unspecified): inactive: -6.35%.
Next, `CP(=O)(Nc1ccc(SC(F)(F)F)cc1)Oc1ccc(Cl)cc1` (stereo unspecified): inactive: -0.16%; `Cc1cccc(C)c1OP(C)(=O)Nc1ccc(SC(F)(F)F)cc1` (stereo unspecified): inactive: -7.25%.
For the molecule `Cc1cc(C)cc(OP(C)(=O)Nc2ccc(SC(F)(F)F)cc2)c1` (stereo unspecified), the activity change, negative = inhibition is inactive: 2.45%.
As for `CCc1ccc(OP(C)(=O)N2CCN(c3ccc([N+](=O)[O-])cc3)CC2)cc1` (stereo unspecified), the figure is inactive: -4.52%; as for `CP(=O)(NC(=O)Nc1ccccc1)Oc1ccccc1` (stereo unspecified), inactive: -3.81%; as for `CCOP(C)(=S)SCC(=O)NC(C)C(=O)O` (stereo unspecified), inactive: 4.03%.
Next, `O=[N+]([O-])c1cc([N+](=O)[O-])c(O)c([N+](=O)[O-])c1.c1ccc(Oc2ccncc2)cc1`: inactive: 1.3%; `CCOC(=O)c1ccc(NP(C)(=O)Oc2ccc(OC)cc2)cc1` (stereo unspecified): inactive: 0.715%.
In the case of `CP(=O)(Nc1ccccn1)Oc1ccc(Cl)cc1` (stereo unspecified), the activity change, negative = inhibition is inactive: 1.63%.
On to `CCN(CC)CCCOC(=O)C(O)(c1ccccc1)c1ccccc1`, for which the activity change, negative = inhibition is inactive: -1.2%.
As for `COc1ccccc1-c1ccccn1.O=[N+]([O-])c1cc([N+](=O)[O-])c(O)c([N+](=O)[O-])c1`, the figure is inactive: 8.52%.
As for `O=[N+]([O-])c1cc([N+](=O)[O-])c(Nc2cccnc2)c([N+](=O)[O-])c1`, the figure is inactive: -2.81%; as for `Cc1cccc(C)c1OP(C)(N)=O` (stereo unspecified), inactive: 4.5%.
Next, `CC(C)(C)c1ccc(OP(C)(=O)Nc2ccc(SC(F)(F)F)cc2)cc1` (stereo unspecified): inactive: -1.74%; `O=[N+]([O-])c1ccc2c(c1)C=Nc1ccccc1O2`: inactive: 0.904%; `CCOC(=O)c1ccc(NP(C)(=O)Oc2ccccc2)cc1` (stereo unspecified): inactive: 3.48%.
For `Cc1ccc(NP(C)(=O)Oc2ccccc2)c(C)c1` (stereo unspecified), the activity change, negative = inhibition is inactive: -1.58%.
Next, `COc1ccccc1OP(C)(=O)Nc1ccc(C)cc1` (stereo unspecified): inactive: -2.97%; `COc1ccc(OP(C)(=O)Nc2cccc(F)c2)cc1` (stereo unspecified): inactive: 0.495%; `COc1ccccc1OP(C)(=O)Nc1cc(Cl)ccc1C` (stereo unspecified): inactive: -4.78%.
Next, `Cc1cc(C)cc(OP(C)(N)=O)c1` (stereo unspecified): inactive: 1.75%; `O=[N+]([O-])c1cccc([N+](=O)[O-])c1`: “inactive”; `CC1=NCCc2c1[nH]c1ccccc21.O=[N+]([O-])c1cc([N+](=O)[O-])c(O)c([N+](=O)[O-])c1`: inactive: -3.4%.
Next, `COc1ccccc1OP(C)(=O)Nc1cccc(Br)c1` (stereo unspecified): inactive: 4.52%; `Cc1cc(C)cc(OP(C)(=O)Nc2ccc(C)cc2C)c1` (stereo unspecified): inactive: -0.699%; `CCOC(=O)c1ccc(NP(C)(=O)Oc2cc(C)cc(C)c2)cc1` (stereo unspecified): inactive: 0.784%.
On to `CP(=O)(Nc1cccc(Br)c1)Oc1ccccc1` (stereo unspecified), for which the activity change, negative = inhibition is inactive: -5.63%.
Take `Cc1cc(C)cc(OP(C)(=O)Nc2ccccn2)c1` (stereo unspecified): the activity change, negative = inhibition is inactive: -0.47%.
Take `Cc1ccc(C)c(NP(C)(=O)Oc2ccccc2)c1` (stereo unspecified): the activity change, negative = inhibition was inactive: -4.5%.
`O=[N+]([O-])c1cc([N+](=O)[O-])c(-n2nnc3ccccc32)c([N+](=O)[O-])c1`: the activity change, negative = inhibition was inactive: 0.0898%.
Turning to `CN(Cc1cccnc1)C(=O)COc1ccc(Cl)c(Cl)c1.O=[N+]([O-])c1cc([N+](=O)[O-])c(O)c([N+](=O)[O-])c1`, the activity change, negative = inhibition was inactive: -4.21%.
Next, `O=[N+]([O-])c1cc([N+](=O)[O-])c(-c2cnn(-c3ccccc3)c2)c([N+](=O)[O-])c1`: inactive: -10.7%; `Cc1nc2ccc3ccccc3c2s1.O=[N+]([O-])c1cc([N+](=O)[O-])c(O)c([N+](=O)[O-])c1`: inactive: -6.26%; `O=[N+]([O-])c1cc([N+](=O)[O-])c(Nc2nnnn2CCO)c([N+](=O)[O-])c1`: inactive: -7.82%.
As to `CC1=C2N=C(C=C3N=C(C(C)=C4[N-][C@@](C)([C@@H]5N=C1[C@](C)(CCC(=O)NC[C@@H](C)OP(=O)([O-])O[C@H]1[C@@H](O)[C@@H](n6cnc7cc(C)c(C)cc76)O[C@@H]1CO)[C@H]5CC(N)=O)[C@@](C)(CC(N)=O)[C@@H]4CCC(N)=O)[C@@](C)(CC(N)=O)[C@@H]3CCC(N)=O)C(C)(C)[C@@H]2CCC(N)=O.[C-]#N.[Co+3]`, the activity change, negative = inhibition was inactive: -24.6%.
As for `CN1CCCCC1COC(=O)C1(O)c2ccccc2CCc2ccccc21` (stereo unspecified), the figure is inactive: -5.53%; as for `COc1ccccc1OP(C)(=O)Nc1c(C)cccc1C` (stereo unspecified), inactive: -0.685%.
Next, `CP(=O)(Nc1ccc(SC(F)(F)F)cc1)Oc1ccccc1` (stereo unspecified): inactive: 5.33%; `CCCOc1ccc(NP(C)(=O)Oc2ccc(Cl)cc2)cc1` (stereo unspecified): inactive: 3.09%; `COc1ccc(OP(C)(=O)Nc2cccc(Br)c2)cc1` (stereo unspecified): inactive: 0.784%.
As for `COc1ccc(NP(C)(=O)Oc2ccccc2OC)cc1` (stereo unspecified), the activity change, negative = inhibition was inactive: -3.27%.
For the molecule `CN(C)CCOC(=O)C(O)(c1ccccc1)C1CCCCC1` (stereo unspecified), the activity change, negative = inhibition was inactive: 5.5%.
